For series [1], the system named is human umbilical vein endothelial cells. The following applies: 10^−10 M DAA-I 15 min.
In series [2] the test system is SH-SY5Y neuroblastoma cells. Briefly: Dopamine-induced neuroblastoma SH-SY5Y cell death (MTT).
Series [3] relates to pancreatic beta-TC-6 cells. Briefly: Glucose-induced pancreatic beta-TC-6 cell death (MTT). The following applies: 4 days.
Series [4] relates to L6 skeletal muscle cells.
The test system of series [5] is human umbilical vein endothelial cells. Briefly: Production of prostaglandins and thromboxane in HUVEC.
The next series relates to T1-α protein in BALF. The following applies: 75 nmole/kg/day oral.
Series [6] relates to superoxide production in lungs. As to conditions: 75 nmole/kg/day; day 4 to day 14.
The test system of another series is ICAM-1 protein in lungs. The following applies: 75 nmole/kg/day; day 4 to day 14.
Another series relates to pulmonary MPO activity. The following applies: 75 nmole/kg/day.
Series [7] relates to gp91-phox protein in lungs. The following applies: 75 nmole/kg/day.
Series [8] deals with PGE2 and PGI2 in lung supernatant. As to conditions: 75 nmole/kg/day.
The test system of series [9] is A549 cells.
Another series concerns B16-F10 melanoma cells. The following applies: 24 hours.
In a further series the test system is C57BL/6J mice. As to conditions: Sim et al., 2008; cited from earlier work.
The test system of series [10] is C57/BL/6J mice exposed to 42° C. Briefly: Survival of mice subjected to heat stroke. As to conditions: 7.5 nmole/kg oral 2 h before 42° C. for 45 min; first 24 hours survival.
Another series deals with HUVEC. Briefly: TNF-α-induced production of ICAM-1 in HUVEC. The following applies: 4 ng/ml TNF-α.
Series [11] concerns A549 cells. Briefly: LPS-induced superoxide production in A549 cells.
Series [12] has as its system Hsp90 in B16-F10 melanoma cells. Briefly: Hsp90 content in B16-F10 melanoma cells (Western blot). The following applies: 24 hours. On the technique in general: Immunoblotting shows a protein as a band on a membrane.
The subject of series [13] is hepatic heat shock proteins 27 and 70. Briefly: Hepatic heat shock proteins 27 and 70 in mice exposed to heat shock. As to conditions: pretreatment with 7.5 nmole/kg DAA-I; heat stroke.
For series [14], the system named is B16-F10 melanoma cells in C57BL/6J mice. Briefly: Growth of intra-hepatic administered B16-F10 melanoma cells in mice. As to conditions: 150 nmole/kg/day oral for 19 days; n 10.
Series [15] relates to L6 skeletal muscle cells. Briefly: H2O2-induced activation and translocation of NFκB to the nucleus in L6 skeletal muscle cells. As to conditions: 200 μM H2O2.
Setting [16] is: 1 μM antagonist pre-incubated 1 h.
Setting [17] is: 10 μM cyclooxygenase inhibitor pre-incubated 1 h.

Several values for one entry are separate records, joined by “and”; a condition that tells them apart may be missing. Identical values can stand only once. Like-named read-outs stand apart in the source and are kept apart here.

For the compound `CCCCc1nc(Cl)c(CO)n1Cc1ccc(-c2ccccc2-c2nn[nH]n2)cc1`, in series [1] (setting [16]), the “effect on DAA-I-induced production of PGE2 and PGI2” value (“effect on DAA-I-induced production” for short) is given as “blocked”.

Take `COc1ccc2c(c1)c(CC(=O)O)c(C)n2C(=O)c1ccc(Cl)cc1`: the “effect on DAA-I-induced production” value in [1] (setting [17]) is “blocked”.

For the compound `CS(=O)(=O)Nc1ccc([N+](=O)[O-])cc1OC1CCCCC1`, the “effect on DAA-I-induced production” value in series [1] (setting [17]) is “not”.

For `NCCc1ccc(O)c(O)c1`, the “LD50 (death of SH-SY5Y)” value in series [2] (dopamine 24 h, MTT) is 400 µM.

In the case of `O=C[C@H](O)[C@@H](O)[C@H](O)[C@H](O)CO`, in [3] (glucose added to DMEM (basal 25 mM), MTT), the “LD50 (death of beta-TC-6 cells)” value was found to be 33.3 mM.

As to H2O2, the ICAM-1 overexpression in the series with L6 skeletal muscle cells [4] (200 μM H2O2, 4 h) is recorded as 8 times the basal level. Further, the “maximum effective dose for ICAM-1 overexpression” value in the series on L6 skeletal muscle cells [4] (H2O2 50-1600 μM, 4 h) came to 200 µM.

Regarding PD123319, the “effect on DAA-I-induced production” value in series [1] (setting [16]) is on record as “not”.

As to angiotensin II, in [5] (10^−7 M angiotensin II), the “production of PGF2α” value was “inducing the production” and the “production of TXA2 (TXB2)” value is “inducing the production”.

Take des-aspartate-angiotensin I: in the series with T1-α protein in BALF (Day 1, 7, 14 post-HSM), the “release of T1α protein” value was “significantly attenuated”. Further, the “attenuation of T1α protein release at 14 day of treatment” value with T1-α protein in BALF (day 14) is given as “complete attenuation”. Further, the “production of superoxide in lung” value in series [6] was “significantly attenuated”. Moreover, in the series on ICAM-1 protein in lungs, the “production of ICAM-1 in lung” value is given as “significantly attenuated”. Also, in the series on pulmonary MPO activity, the “level of lung MPO” value was “significantly attenuated”. In addition, the “increase in lung gp91-phox protein” value in [7] is given as “significantly attenuated”. In series [8], the “HSM-induced decrease in lung PGI2 (6-keto PGF1α)” value was “attenuated the decrease” and the “HSM-induced increase in lung PGE2” value is “significantly enhanced the increase”. The “maximum effective dose for attenuation of ICAM-1 overexpression” value in the series on L6 skeletal muscle cells [4] (200 μM H2O2) was 10^−10 M. Further, the “attenuation of H2O2-induced overexpression of ICAM-1” value with L6 skeletal muscle cells [4] (10^−10 M DAA-I, 200 μM H2O2) was 100%. Besides, in the series on A549 cells [9] (10^−12 M DAA-I, 10 μg/ml LPS, 24 hours), the “inhibition of LPS-induced E-selectin production” value is reported as “complete”. Moreover, the “effect on basal level of superoxide (legend of E-selectin figure)” value in the series with A549 cells [9] (10^−14M DAA-I by itself) is given as “had no effect”. In the series on B16-F10 melanoma cells (10^−6 M to 10^−20 M), the “viability of cultured B16-F10 melanoma cells” value was “concentration-dependently inhibited”. Further, in the series on B16-F10 melanoma cells, the “concentration of maximum effect on viability” value is 10^−10 M and the “concentrations attenuating growth of melanoma cells” value is 10^−10 to 10^−14 M. In the series with C57BL/6J mice, the “hypoglycemic action in euglycemic C57BL/6J mice” value is on record as “exert hypoglycemic action”. Besides, in series [10], the “Survival (Number out of 5 animals) Female Mice” value was 5 out of 5 animals and 4 out of 5 animals; the “Survival (Number out of 5 animals) Male Mice” value is reported as 4 out of 5 animals. The “concentration of maximum attenuation of TNF-α-induced ICAM-1” value in the series on HUVEC is reported as 10^−10 M. Moreover, the “inhibition of LPS-induced superoxide production” value in the series with A549 cells [11] (10^−12 M DAA-I, 10 μg/ml LPS, 6 hours) is given as “complete”. Further, in the series on A549 cells [11] (10^−14M DAA-I by itself), the “effect on basal level of superoxide” value is “had no effect”. Also, in series [5] (10^−5 M DAA-I), the “production of PGE2” value is listed as “less effective”, the “production of PGF2α” value is recorded as “mimicked angiotensin II in inducing the production”, the “production of PGI2 (6-keto PGF1α)” value is recorded as “less effective” and the “production of TXA2 (TXB2)” value is “mimicked angiotensin II in inducing the production”. Also, in series [5] (10^−10 M DAA-I), the “basal production of PGF2α” value was “had no effect”, the “basal production of thromboxane A2 (TXB2)” value was “had no effect”, the “production of PGE2” value was “specifically induced the production” and the “production of PGI2 (6-keto PGF1α)” value is “specifically induced the production”. Moreover, the “concentration at which non specific action is exerted” value in [5] (concentration range of 10^−12 to 10^−5 M) is 10^−6 M. For the same compound, the “maximum protection from glucose-induced cell death” value in [3] (10^−12 M DAA-I, additional 33.3 mM glucose) is listed as “over 90%”. Further, the “concentration of maximum attenuation of cell death” value in [3] (additional 33.3 mM glucose) is 10^−12 M. Further, in [12] (10^−6 M to 10^−20 M), the “production of heat shock protein 90” value is recorded as “concentration-dependently inhibited”. In addition, the “cellular content of Hsp90” value in series [12] (10^−10 to 10^−14 M) is “similarly attenuated”. Further, the “concentration of maximum effect on Hsp90” value in series [12] was 10^−10 M. Besides, the “concentrations of maximum attenuation of cell death” value in series [2] (400 μM dopamine, 24 h) is on record as 10^−10 to 10^−12 M. The “maximum protection from dopamine-induced cell death” value in [2] (10^−12 M DAA-I, 400 μM dopamine) is “over 90%”. In addition, in [13], the “production of hepatic heat shock protein 27” value was “significantly enhanced the production” and the “production of hepatic heat shock protein 70” value is “significantly enhanced the production”. Also, in series [14], the “No. of mice with tumor growth in liver” value is on record as 4; the “No. of mice with tumor growth in liver and abdominal lymphatics” value amounted to 2. Besides, the “maximum effective dose for attenuation of NF-κB translocation” value in the series on L6 skeletal muscle cells [15] is on record as 10^−10 M. The “attenuation of H2O2-induced translocation of NF-κB into the nucleus” value in the series with L6 skeletal muscle cells [15] (10^−10 M DAA-I) is above 90%.

The values above are taken from patent US10568926B2, “Use of des-aspartate-angiotensin I to treat patients exhibiting malignant growth, invasive growth, tumor, tumor metastasis or cancer” (dated 2020).
